These results are taken from publication PMC6424611.

For assay [1], the target named is biotinylated RSK1 725-735 peptide, unphosphorylated (human) (UniProt Q15418). Nature of the assay: SPR.
Assay [2] addresses fluorescein labeled RSK1 729-735 peptide, phosphorylated (human) (UniProt Q15418). In words: fluorescence polarisation.
Assay [3] deals with biotinylated RSK1 725-735 peptide, phosphorylated at Ser732 (position -3) (human) (UniProt Q15418). Nature of the assay: holdup assay.
The target in assay [4] is biotinylated RSK1 725-735 peptide, unphosphorylated (human) (UniProt Q15418). Nature of the assay: holdup assay.
The target in assay [5] is biotinylated RSK1 725-735 peptide, phosphorylated at Ser732 (position -3) (human) (UniProt Q15418). Nature of the assay: SPR.

Consider “MBP-fused PDZ domain of GOPC (from UniProt Q9HD26 288-371) (domain or fragment)”, for which the Kd in assay [1] was 8.92 µM; in assay [2] it was greater than 100 µM. In addition, the BI in assay [3] came to 0.25; in assay [4], 0.63.

“MBP-fused PDZ domain of SNX27 (from UniProt Q96L92 43-136) (domain or fragment)”: the Kd in assay [5] was 46 µM; in assay [3], 17.1 µM; in assay [4], greater than 100 µM. The BI in assay [3] was 0.47.
